The values that follow come from paper PMC6711705, “Tailored tetravalent antibodies potently and specifically activate Wnt/Frizzled pathways in cells, organoids and mice” (eLife, 2019).

Residue numbers refer to the chain shown, from its start.

Common to all, as to settings: both partners purified
One assay concerns the target T1, Fc-tagged FZD1 CRD (Homo sapiens, UniProt Q9UP38).
T1 construct: Frizzled-1, human, cysteine rich domain (CRD); also called FZD1-Fc; source: bought: R and D Systems
The experiment in a line: SPR; soluble F^P Fab or IgG injected over FZD-Fc immobilised on a GLC sensor by amine coupling; PBS, 0.05% Tween20, 0.5% BSA; 25 °C; 1:1 Langmuir model, global fit.

The target of the next assay is T2, Fc-tagged FZD2 CRD (Homo sapiens, UniProt Q14332).
T2 construct: Frizzled-2, human, cysteine rich domain (CRD); also called FZD2-Fc; source: bought: R and D Systems
The description is as above.

In the next assay the target is T3, Fc-tagged FZD4 CRD (Homo sapiens, UniProt Q9ULV1).
T3 construct: Frizzled-4, human, cysteine rich domain (CRD); also called FZD4-Fc; source: bought: R and D Systems
Described as above.

For a further assay, the target named is T4, Fc-tagged FZD7 CRD (Homo sapiens, UniProt O75084).
T4 construct: Frizzled-7, human, cysteine rich domain (CRD); also called FZD7-Fc; source: bought: R and D Systems
The description is as above.

For assay [1], the target named is T5, Fc-tagged ECD fusion protein of human LRP6 (Homo sapiens, UniProt O75581).
T5 construct: LRP6, human, extracellular domain (ECD); also called LRP6-Fc; LRP6 ECD; source: bought: R and D Systems
Put plainly: BLI; epitope binning: LRP6-Fc immobilised on AR2G sensors, saturated with 100 nM Ab, then 100 nM competing Ab; PBS, 1% BSA, 0.05% Tween20; 25 °C.

B1: F^P IgG (antibody, V domains shown)
VH: EVQLVESGGGLVQPGGSLRLSCAASGFNIGSSSIHWVRQAPGKGLEWVASIYSAFASTSYADSVKGRFTISADTSKNTAYLQMNSLRAEDTAVYYCARYHFPFGFALDYWGQGTLVTVSS
VL: DIQMTQSPSSLSASVGDRVTITCRASQSVSSAVAWYQQKPGKAPKLLIYSASSLYSGVPSRFSGSRSGTDFTLTISSLQPEDFATYYCQQGVYLFTFGQGTKVEIK
With B1, the binding result in the assay with Fc-tagged FZD1 CRD, with Fc-tagged FZD2 CRD, with Fc-tagged FZD4 CRD and with Fc-tagged FZD7 CRD was “binds” throughout.

B2: L6^1 IgG (antibody, V domains shown)
VH: EVQLVESGGGLVQPGGSLRLSCAASGFNISSYYIHWVRQAPGKGLEWVASIYSSYGYTSYADSVKGRFTISADTSKNTAYLQMNSLRAEDTAVYYCARTVRGSKKPYFSGWAMDYWGQGTLVTVSS
VL: B1 VL with G91Y, V92Y, Y93W, L94P, F95I
In the case of B2, the binding result in assay [1] is given as “binds”.

B3: L6^3 IgG (antibody, V domains shown)
VH: EVQLVESGGGLVQPGGSLRLSCAASGFNISYSSIHWVRQAPGKGLEWVAYISSYYGYTYYADSVKGRFTISADTSKNTAYLQMNSLRAEDTAVYYCARAHYFPWAGAMDYWGQGTLVTVSS
VL: DIQMTQSPSSLSASVGDRVTITCRASQSVSSAVAWYQQKPGKAPKLLIYSASSLYSGVPSRFSGSRSGTDFTLTISSLQPEDFATYYCQQYSWGPFTFGQGTKVEIK
As for B3, the binding result in assay [1] is on record as “binds”.
